Amino acid sequences for entries named in this document (tags omitted).
UniProt P18901, whole entry: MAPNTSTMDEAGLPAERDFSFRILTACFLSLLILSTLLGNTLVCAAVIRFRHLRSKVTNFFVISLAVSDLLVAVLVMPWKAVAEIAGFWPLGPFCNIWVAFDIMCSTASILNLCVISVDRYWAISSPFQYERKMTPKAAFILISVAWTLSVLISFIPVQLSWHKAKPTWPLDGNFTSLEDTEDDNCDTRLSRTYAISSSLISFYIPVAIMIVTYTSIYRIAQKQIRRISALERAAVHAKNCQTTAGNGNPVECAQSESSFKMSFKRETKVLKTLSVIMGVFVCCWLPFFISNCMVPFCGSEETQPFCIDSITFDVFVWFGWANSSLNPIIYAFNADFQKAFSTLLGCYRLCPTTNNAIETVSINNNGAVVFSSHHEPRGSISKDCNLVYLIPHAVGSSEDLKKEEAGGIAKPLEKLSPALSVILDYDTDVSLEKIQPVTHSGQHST

In patent publication US6916823B2, “Method of treatment of dopamine-related dysfunction” (Purdue Research Foundation, priority 2001, dated 2005):

Molecular target: T1, D1 receptors (Rattus norvegicus, UniProt P18901)
T1 construct: increase cAMP production in rat striatum and C-6-mD1 cells; from tissue; host or cells: rat striatum (striatal membranes)
Assay: cAMP production in rat striatum
Format: biochemical
Details: rat striatum / rat striatal membranes, relative to dopamine

Compound: Oc1cc2c(cc1O)C(c1ccccc1)CNCC2 (single isomer, unassigned; (+)) [(+)-SKF-38393, reference compound]
- agonist activity (intrinsic activity): partial agonist
